Hits are enriched below; roughly 2.3% of the tested compounds scored in any of these assays.
MC4R antagonist – human MC4R antagonism in cAMP assay. 360,000 compounds, 0.48% hits. MC4R-expressing cells, MTII-stimulated cAMP, LANCE TR-FRET. inhibition, % at 6.5 µM. AID 540295;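 active means inhibition above its plate's cutoff, the mean of tested wells on that plate plus 3 SD, cut at about 29% in these data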;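 further: 0% = Melanotan II alone and 100% = Melanotan II plus saturating MCL0020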
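Material – human MC4R-expressing U2OS cells · Repeats – no replicates · Detection – TR-FRET with Eu-cAMP and labeled anti-cAMP, 671 nm · Times – compound 30 min, challenge 1 h, detection 1 h · Compound – single nominal compound dose of 6.5 µM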
CendR NRP1 mod – alters CendR peptide binding to human NRP-1; 360,000 compounds, 0.85% hits; AID 602438; inhibition, % at 25 µM; FAM-RPARPAR peptide binding to NRP-1, fluorescence polarization;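 active means inhibition or corrected inhibition above about 18%, plus a signal ratio from 0.5 to 1.5, limit read from the data, passing the limit was not always enough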
ARFGAP1 inhibitor – rat ARFGAP1 inhibition; Q62848; Arfgap1-stimulated ARF1 GTP hydrolysis, GDP FP detection; inhibition, % at 16.5 µM; 360,000 compounds, 0.26% hits;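 active means inhibition above a per-plate limit, mean inhibition of low control wells plus 3 SD, cut at about 25% in these data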;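 further: 0% = DMSO wells with enzyme and 100% = wells lacking Arfgap1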
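Replicates: Single well per compound | Assay system: Truncated rat Arfgap1 GAP domain | Control set: No-Arfgap1 wells (100%) versus DMSO full-reaction wells (0%) | Times: Enzyme reaction 120 min at 25 °C after 20 min preincubation | Reagent: Human ARF1(Δ1-17)-GTP substrate | Measured by: Tracer-displacement fluorescence polarization with EDTA stop, 620/688 nm | Measure: Percent inhibition of Arfgap1-stimulated GTP hydrolysis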
ASAP1 inh – blocks human ASAP1-stimulated Arf1 GTP hydrolysis; AID 624377; 360,000 compounds, 0.19% hits; GDP FP detection; Q9ULH1; inhibition, % at 16.5 µM; in the data active means inhibition above about 25%;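 further: 0% = vehicle with enzyme and substrate and 100% = no enzyme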
Yeast UUG start – modulators of start codon recognition fidelity in yeast; AID 602363; activity score, % at 18.7 µM; S. cerevisiae UUG-firefly luciferase reporter, luminescence/redox ratio; actives 0.13% (n = 350,000);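 active = replicate mean at a twofold rise or more, about +100% in these data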;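 note: firefly luciferase made from a UUG start codon reports start codon fidelity; reporter light over untreated wells divided by growth signal over untreated wells; some hits fall short of that in this replicate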
MC4R barr agon – human MC4R agonism via beta-arrestin; U2OS MC4R beta-arrestin complementation, luminescence; percent of melanotan II response, DMSO zero; activation, % at 8.9 µM; 360,000 compounds, 0.98% hits;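 active means activation above a per-plate cutoff, the mean activation of sample wells on that plate plus 3 SD, cut at about 8% in these data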
ARFGAP1 confirm – rat ARFGAP1 inhibition, confirmed; shares compounds with ARFGAP1 inhibitor; ARFGAP1-stimulated ARF1 GTP hydrolysis, GDP tracer FP; inhibition, % at 16.5 µM; 890 compounds, 30% hits; AID 651608;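 active means average inhibition over triplicates above the hit cutoff set in the earlier primary screen, cut at about 25% in these data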;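 further: 0% = Arfgap1 plus ARF1-GTP with DMSO and 100% = wells lacking Arfgap1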
Active calls of the source: *; nt = no result.

SMILES | MC4R antagonist | CendR NRP1 mod | ARFGAP1 inhibitor | ASAP1 inh | Yeast UUG start | MC4R barr agon | ARFGAP1 confirm
N#C/C(=C/c1ccc(N2CCCC2)c([N+](=O)[O-])c1)c1nc2ccccc2[nH]1 | 19 | 6 | -13 | 2 | -21 | 2 | nt
COc1ccccc1C(=O)c1nc2ccccc2n1C | 7 | 2 | 25* | -9 | -24 | -1 | -6
CCN(c1ccc(C)c(C)c1)S(=O)(=O)c1ccc2c(c1)CCN2C(=O)CCC(=O)O | -5 | 16 | 29* | 2 | nt | -3 | -5
CCN(c1ccc(OC)cc1)S(=O)(=O)c1ccc2c(c1)CCN2C(=O)CCC(=O)O | 6 | 3 | -10 | 11 | -13 | 1 | nt
CCC(=O)N(C)C[C@H]1Oc2ncc(Br)cc2C(=O)N([C@@H](C)CO)C[C@H]1C | nt | nt | nt | nt | -10 | nt | nt
CCS(=O)(=O)C(=C1NCCO1)S(=O)(=O)CC | -1 | 3 | 25* | -1 | -19 | 2 | -4
O=[N+]([O-])/C(C(=C(Cl)Cl)N1CCOCC1)=C1\NCCO1 | 12 | -4 | 4 | 1 | nt | 3 | nt
COCC(=O)Nc1ccc2c(c1)C(=O)N(C)[C@@H]1CC[C@H](CC(=O)NCCCN(C)C)O[C@@H]1CO2 | nt | nt | nt | nt | -13 | nt | nt
O=C(CSc1nc2c(c(=O)n1-c1ccc(Br)cc1)SCC2)NCc1ccco1 | 10 | -16 | 29* | -3 | -2 | 0 | -3
CC1CCCN(C(=O)Cn2nnc(-c3ccc(F)cc3)n2)C1 (stereo unspecified) | 2 | -4 | 0 | 8 | nt | 1 | nt
CC1CCCN(C(=O)Cn2nnc(-c3cccnc3)n2)C1 (stereo unspecified) | -6 | 1 | 26* | -6 | -4 | 3 | 8
CCC(=O)Nc1ccc2c(c1)OC[C@@H](C)N(C(C)=O)C[C@@H](C)[C@H](OC)CN(C)C2=O | nt | nt | nt | nt | -6 | nt | nt
Cc1cccc(N(C)S(=O)(=O)c2c[nH]c3ccc([N+](=O)[O-])cc23)c1 | 8 | -6 | 26* | 10 | -11 | -2 | 5
O=[N+]([O-])c1ccc2[nH]cc(S(=O)(=O)N3CCN(c4cccc(Cl)c4)CC3)c2c1 | 5 | 3 | 10 | 3 | -11 | -3 | nt
C[C@@H]1CCCCO[C@H](CN(C)C(=O)Nc2ccc(F)cc2)[C@@H](C)CN([C@H](C)CO)C(=O)c2cc(NC(=O)CCC(F)(F)F)ccc2O1 | nt | nt | nt | nt | -1 | nt | nt
COC(=O)c1nnn(CC(=O)Nc2cc(Cl)ccc2C)c1C(=O)OC | 7 | -5 | 7 | 2 | -14 | 1 | nt
COC(=O)c1nnn(-c2cccc(Cl)c2)c1C(=O)OC | 7 | 2 | 25* | -1 | nt | -1 | 5
C[C@@H]1CN([C@H](C)CO)C(=O)c2cc(C#Cc3ccccc3)cnc2O[C@@H]1CN(C)CC1CCOCC1 | nt | nt | nt | nt | 2 | nt | nt
COc1ccc(C(=O)N/C(=C\c2ccccc2)C(=O)NCc2cccnc2)cc1 | 1 | 2 | 25* | -4 | -8 | -1 | 2
C[C@H]1CN([C@@H](C)CO)C(=O)c2cc(C#Cc3cccnc3)cnc2O[C@H]1CN(C)Cc1ccncc1 | nt | nt | nt | nt | -6 | nt | nt
O=C(Nc1ccc(-c2cn3ccccc3n2)cc1)c1cccs1 | 2 | 0 | 25* | -2 | nt | -3 | 86*
CCS(=O)(=O)N1CCCCN2[C@H](C1)[C@@H](c1ccc(C#Cc3ccccc3OC)cc1)[C@@H]2CO | nt | nt | nt | nt | 6 | nt | nt
Cc1c(C)c2ccc(OCC(=O)NCCc3c[nH]c4ccccc34)c(C)c2oc1=O | 6 | 10 | 25* | 15 | -24 | -1 | 6
C/C=C/c1ccc2c(c1)O[C@H](CN(C)C(=O)C1CC1)[C@@H](C)CN([C@H](C)CO)S2(=O)=O | nt | nt | nt | nt | -10 | nt | nt
COc1ccccc1-c1cnc2c(c1)C(=O)N([C@@H](C)CO)C[C@@H](C)[C@H](CN(C)Cc1cncnc1)O2 | nt | nt | nt | nt | 12 | nt | nt
O=C(NCc1cccs1)c1cc2c(s1)-c1ccccc1OC2 | 10 | 2 | 47* | 4 | -13 | 1 | 47*
Cc1cccc2nc(-c3cccc(NC(=O)c4ccc(Cl)cc4)c3)cn12 | -3 | -15 | 58* | 15 | 3 | 5 | 24

Some of the entries above in another layout:
compound	MC4R antagonist	CendR NRP1 mod	ARFGAP1 inhibitor	ASAP1 inh	Yeast UUG start	MC4R barr agon	ARFGAP1 confirm
COc1ccc(C(=O)N/C(=C\c2ccccc2)C(=O)NCc2cccnc2)cc1	1	2	25*	-4	-8	-1	2
C[C@H]1CN([C@@H](C)CO)C(=O)c2cc(C#Cc3cccnc3)cnc2O[C@H]1CN(C)Cc1ccncc1	nt	nt	nt	nt	-6	nt	nt
O=C(Nc1ccc(-c2cn3ccccc3n2)cc1)c1cccs1	2	0	25*	-2	nt	-3	86*
CCS(=O)(=O)N1CCCCN2[C@H](C1)[C@@H](c1ccc(C#Cc3ccccc3OC)cc1)[C@@H]2CO	nt	nt	nt	nt	6	nt	nt
